# Values quoted from earlier work in patent US20210002295A1, “SMALL MOLECULE DEGRADERS THAT RECRUIT DCAF15” (Dana-Farber Cancer Institute, Inc., priority 2017, published 2021).
# Target: bromodomains of BET proteins
# Conditions: stated for small molecule BET inhibitors
compound,measurement,value
CCNC(=O)C[C@@H]1N=C(c2ccc(Cl)cc2)c2cc(OC)ccc2-n2c(C)nnc21 [I-BET762],Kd,~10 nM
